# Values of other authors in patent US20070237810A1, “Biocidal fibrous and film materials comprising silver and chlorite ions” (published 2007).
# Settings: solid state; stable below this temperature in the absence of acid
substance,measurement,value
silver chlorite,temperature above which it slowly disproportionates,above 85 °C
